From patent US20250313563A1, “GLYCOGEN SYNTHASE KINASE 3 INHIBITORS AND USES THEREOF” (The Broad Institute, Inc., priority 2022, published 2025)
Read-outs that look alike come from different tables or passages of the source. One block for each compound: values may come before it.

Sequences of proteins named here, by UniProt entry; tags and fusion partners are left off.
UniProt P49841, whole entry: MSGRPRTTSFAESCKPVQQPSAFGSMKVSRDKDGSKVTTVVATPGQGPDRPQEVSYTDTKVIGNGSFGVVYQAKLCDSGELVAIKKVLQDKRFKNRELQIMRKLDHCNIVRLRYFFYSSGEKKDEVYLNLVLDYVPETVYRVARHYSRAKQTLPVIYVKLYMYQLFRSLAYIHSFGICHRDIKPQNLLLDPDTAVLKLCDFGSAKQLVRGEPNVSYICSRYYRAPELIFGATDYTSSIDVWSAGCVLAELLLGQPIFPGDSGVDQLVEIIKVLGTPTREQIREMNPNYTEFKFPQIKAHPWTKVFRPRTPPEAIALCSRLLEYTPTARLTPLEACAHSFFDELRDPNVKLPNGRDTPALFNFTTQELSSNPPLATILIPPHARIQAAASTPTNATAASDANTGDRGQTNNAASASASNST
UniProt P49840, whole entry: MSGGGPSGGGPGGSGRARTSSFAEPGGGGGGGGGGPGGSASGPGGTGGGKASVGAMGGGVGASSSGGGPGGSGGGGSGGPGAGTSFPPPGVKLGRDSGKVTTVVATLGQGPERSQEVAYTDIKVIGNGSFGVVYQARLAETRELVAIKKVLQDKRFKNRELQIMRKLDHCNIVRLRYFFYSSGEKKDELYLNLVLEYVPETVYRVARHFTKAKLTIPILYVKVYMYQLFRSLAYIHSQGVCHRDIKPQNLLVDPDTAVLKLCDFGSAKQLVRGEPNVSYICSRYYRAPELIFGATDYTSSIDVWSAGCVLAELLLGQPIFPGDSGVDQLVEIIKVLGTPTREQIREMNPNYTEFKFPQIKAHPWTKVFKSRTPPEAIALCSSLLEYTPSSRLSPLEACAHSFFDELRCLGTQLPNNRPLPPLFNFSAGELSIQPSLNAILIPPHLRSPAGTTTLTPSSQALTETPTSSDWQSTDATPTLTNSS

Legend:
[1] = target: GSK3b (GST-full length GSK3b) (Homo sapiens (Human), UniProt P49841); assay: GSK3b TR-FRET kinase assay; assay type: biochemical
[2] = Microsomal stability (MIC), human; conditions: human liver microsomes
[3] = target: GSK3α (GST-full length GSK3α) (Homo sapiens (Human), UniProt P49840); assay: GSK3α TR-FRET kinase assay; assay type: biochemical
[4] = Microsomal stability (MIC), mouse; conditions: mouse liver microsomes
[5] = system: MDR1-MDCK cell monolayers; assay: MDR1/MDCK assay (blood-brain barrier penetration potential); conditions: 5 μM, pH 7.4, 120 minutes
[6] = read-out: GSK3-B (TR-FRET 1 mM ATP), GMean, IC50, 1 mM ATP, geometric mean
[7] = read-out: GSK3b (100 μM ATP) Average IC50, 100 μM ATP
[8] = read-out: GSK3-A (TR-FRET 1 mM ATP), GMean, IC50, 1 mM ATP, geometric mean
[9] = read-out: GSK3a (100 μM ATP) Average IC50, 100 μM ATP
[10] = read-out: GSK3-B TR-FRET BIOCHEMICAL (TR-FRET), GMean, IC50, 1 nM GSK3b, 2 μM ATP, 30 minute preincubation, geometric mean
[11] = read-out: GSK3-A TR-FRET BIOCHEMICAL (TR-FRET), GMean, IC50, 1 nM GSK3α, 4 μM ATP, 30 minute preincubation, geometric mean
[12] = read-out: GSK3-B TR-FRET BIOCHEMICAL (TR-FRET), IC50, 1 nM GSK3b, 2 μM ATP, 30 minute preincubation (Table 16)
[13] = read-out: GSK3-A TR-FRET BIOCHEMICAL (TR-FRET), IC50, 1 nM GSK3α, 4 μM ATP, 30 minute preincubation (Table 16)
[14] = read-out: GSK3-B TR-FRET BIOCHEMICAL (TR-FRET), IC50, 1 nM GSK3b, 2 μM ATP, 30 minute preincubation
[15] = read-out: GSK3-A TR-FRET BIOCHEMICAL (TR-FRET), IC50, 1 nM GSK3α, 4 μM ATP, 30 minute preincubation
[16] = read-out: GSK3-B TR-FRET BIOCHEMICAL (TR-FRET);, 1 nM GSK3b, 2 μM ATP, 30 minute preincubation, Table 16
[17] = read-out: GSK3-A TR-FRET BIOCHEMICAL (TR-FRET);, 1 nM GSK3α, 4 μM ATP, 30 minute preincubation, Table 16

Compound: CC(C)(C)Cc1[nH]nc2c1C1(CN(S(=O)(=O)CC3CC3)C1)C1=C(CC(C)(C)CC1=O)N2
IC50 [1, 6]: 1 to 5 µM
IC50 ([1]; read-out: GSK3b (10 μM ATP) Average IC50, 10 μM ATP): 0.003 µM
IC50 [1, 7]: 0.055 µM
Microsome stability (human); in vitro T1/2 [2]: 9.978 min
IC50 [3, 8]: > 5 µM
IC50 ([3]; read-out: GSK3a (10 μM ATP) Average IC50, 10 μM ATP): 0.051 µM
IC50 [3, 9]: 0.956 µM
Microsome stability (mouse); in vitro T1/2 [4]: 7.685 min

Compound: CC[C@@]1(c2cccc(OC(C)C)c2)C2=C(CC(C)(C)CC2=O)Nc2n[nH]cc21 [Compound 811563]
IC50 [1, 10]: < 0.1 µM
IC50 [3, 11]: < 0.1 µM

Compound: CC[C@@]1(c2cccc(-c3ccncc3)c2)C2=C(CC(C)(C)CC2=O)Nc2n[nH]c(C)c21
IC50 [1, 12]: < 0.1 µM
IC50 [3, 13]: < 0.1 µM

Compound: CCC1(c2cccc(-c3cc(C)ncc3C)c2)C2=C(CC(C)(C)CC2=O)Nc2n[nH]cc21 (stereo not drawn)
IC50 [1, 12]: 0.1 to 1 µM
IC50 [3, 13]: < 0.1 µM

Compound: CCC1(c2cccc(N(C)C(=O)c3ccccc3)c2)C2=C(CC(C)(C)CC2=O)Nc2n[nH]cc21 (stereo not drawn)
IC50 [1, 12]: 0.1 to 1 µM
IC50 [3, 13]: < 0.1 µM

Compound: CCCS(=O)(=O)c1cccc([C@@]2(CC)C3=C(CC(C)(C)CC3=O)Nc3n[nH]cc32)c1
IC50 [1, 12]: > 5 µM
IC50 [3, 13]: 1 to 5 µM

Compound: CC[C@]1(c2cccc(N(C)c3nccc(OC)n3)c2)C2=C(CC(C)(C)CC2=O)Nc2n[nH]cc21
IC50 [1, 16]: 1 to 5 µM
IC50 [3, 17]: 0.1 to 1 µM

Compound: CC[C@@]1(c2cccc(-c3cnc4n3CCCC4)c2)C2=C(CC(C)(C)CC2=O)Nc2n[nH]cc21
IC50 [1, 16]: > 5 µM
IC50 [3, 17]: 1 to 5 µM

Compound: CC[C@]1(c2cccc(-c3c(F)cncc3F)c2)C2=C(CC(C)(C)NC2=O)Nc2n[nH]cc21
IC50 [1, 6]: 1 to 5 µM
IC50 [1, 10]: < 0.1 µM
IC50 [3, 8]: 0.1 to 1 µM
IC50 [3, 11]: < 0.1 µM

Compound: CCC1(c2cccc(C(F)(F)F)c2)C2=C(Nc3n[nH]cc31)C(C)CNC2=O (stereo not drawn)
IC50 [1, 14]: 0.1 to 1 µM
IC50 [3, 15]: < 0.1 µM

Compound: CC[C@]1(c2cccc(-c3ccncc3)c2)C2=C(CC(C)(C)CC2=O)Nc2n[nH]c(C)c21
IC50 [1, 12]: 1 to 5 µM
IC50 [3, 13]: 0.1 to 1 µM

Second part, the compound after the results:

IC50 [1, 6]: 0.1 to 1 µM
IC50 [3, 8]: 1 to 5 µM
MDCK permeability (MDR1-MDCK); Mean; Papp Ratio (B − A/A − B) (efflux ratio) [5]: 138
MDCK permeability (MDR1-MDCK); Mean; Papp (A − B) ([5]; A to B): 0.43 10^−6 cm/s
MDCK permeability (MDR1-MDCK); Mean; Papp (B − A) ([5]; B to A): 60 10^−6 cm/s
Compound: Cn1ccc(-c2cccc([C@]3(C)C4=C(CC(C)(C)CC4=O)Nc4n[nH]c(CC(C)(C)C)c43)c2)n1

IC50 [1, 6]: 1 to 5 µM
IC50 [1, 7]: 0.066 µM
Microsome stability (human); in vitro T1/2 [2]: 2.27 min
IC50 [3, 8]: > 5 µM
IC50 [3, 9]: 0.438 µM
Compound: CC(C)(C)Cc1[nH]nc2c1C1(CN(S(=O)(=O)c3ccccc3)C1)C1=C(CC(C)(C)CC1=O)N2

IC50 [1, 10]: < 0.1 µM
IC50 [3, 11]: < 0.1 µM
Compound: CC[C@]1(c2cccc(N(C)c3ccccn3)c2)C2=C(CC(C)(C)CC2=O)Nc2n[nH]cc21

IC50 [1, 12]: > 5 µM
IC50 [3, 13]: 1 to 5 µM
Compound: CC[C@]1(c2cccc(-c3cc(C)ncc3F)c2)C2=C(CC(C)(C)NC2=O)Nc2n[nH]c(C)c21

IC50 [1, 14]: < 0.1 µM
IC50 [3, 15]: < 0.1 µM
Compound: CCC1(c2cccc(S(=O)(=O)C3CC3)c2)C2=C(CC(C)(C)NC2=O)Nc2n[nH]cc21 (stereo not drawn) [Compound 946004]

IC50 [1, 10]: 1 to 5 µM
IC50 [3, 11]: 0.1 to 1 µM
Compound: CC[C@]1(c2cccc(-c3c(C)nn(C)c3C)c2)C2=C(CC(C)(C)NC2=O)Nc2n[nH]c(C(F)(F)F)c21

IC50 [1, 10]: 1 to 5 µM
IC50 [3, 11]: 0.1 to 1 µM
Compound: CC[C@]1(c2cccc(-c3ccnc(N4CCOCC4)c3)c2)C2=C(CC(C)(C)NC2=O)Nc2n[nH]cc21

IC50 [1, 6]: 0.1 to 1 µM
IC50 [1, 12]: < 0.1 µM
IC50 [3, 8]: < 0.1 µM
IC50 [3, 13]: < 0.1 µM
Compound: CC[C@@]1(c2cccc(C(C)C)c2)C2=C(CC(C)(C)NC2=O)Nc2n[nH]c(C(F)(F)F)c21

IC50 [1, 16]: 0.1 to 1 µM
IC50 [3, 17]: < 0.1 µM
Compound: CC[C@@]1(c2cccc(-c3ccncc3F)c2)C2=C(CC(C)(C)CC2=O)Nc2n[nH]c(C(F)(F)F)c21

IC50 [1, 14]: 0.1 to 1 µM
IC50 [3, 15]: < 0.1 µM
Compound: CC[C@]1(c2cccc(C(F)(F)F)c2)C2=C(C[C@@H](C)NC2=O)Nc2n[nH]cc21

IC50 [1, 12]: > 5 µM
IC50 [3, 13]: 1 to 5 µM
Compound: CC[C@]1(c2cccc(C(F)(F)F)c2)C2=C(CCC2=O)Nc2n[nH]cc21
